How the values were obtained:
Type in all cases: functional
NCI-H520 = experiment: Induction of apoptosis in human NCI-H520 cells assessed as decrease in MCL-1 protein expression at 10 uM by measuring fold change by Western blot analysis relative to control
[1] = Downregulation of Cyclin D1 level in human NCI-H1703 cells at 7.5 uM by measuring fold change by Western blot analysis relative to control
NCI-H1703 [2] = experiment: Induction of apoptosis in human NCI-H1703 cells assessed as decrease in NSD3 protein expression at 5 uM by measuring fold change by Western blot analysis relative to control
NCI-H1703 [3] = experiment: Induction of apoptosis in human NCI-H1703 cells assessed as decrease in Bcl-XL protein expression at 10 uM by measuring fold change by Western blot analysis relative to control
[4] = Downregulation of NSD3 level in human NCI-H1703 cells at 5 uM by measuring fold change by Western blot analysis relative to control
[5] = Downregulation of CDC25A level in human NCI-H1703 cells at 5 uM by measuring fold change by Western blot analysis relative to control
[6] = Downregulation of c-Myc level in human NCI-H1703 cells at 5 uM by measuring fold change by Western blot analysis relative to control
[7] = Downregulation of Cyclin D1 level in human NCI-H520 cells at 3 uM by measuring fold change by Western blot analysis relative to control

Cc1cc(CNCCCCCCCCCCC(=O)N[C@H](C(=O)N2C[C@H](O)C[C@H]2C(=O)N[C@@H](C)c2ccc(-c3scnc3C)cc2)C(C)(C)C)cc(C)c1-c1ncn(C)c1-c1ccnc2cc(F)ccc12
fold change (FC) (NCI-H520): 0.52
fold change (FC) [1]: 0.51
fold change (FC) (NCI-H1703 [2]): 0.87
fold change (FC) (NCI-H1703 [3]): 0.79
fold change (FC) [4]: 0.85
fold change (FC) [5]: 0.87
fold change (FC) [6]: 0.87
fold change (FC) [7]: 0.76
